# System: anesthetized rats
# Assay: Blood pressure responses in anesthetized rats
# Assay type: in vivo, rat
# Details: infusion 183 p mol/kg/min
structure (smiles),measurement,value
"CC[C@H](C)[C@@H]1NC(=O)[C@H](CCCNC(=N)N)NC(=O)[C@H](CC(=O)O)NC(=O)[C@H]([C@@H](C)CC)NC(=O)[C@H](CCCNC(=N)N)NC(=O)CNC(=O)CNC(=O)[C@H](Cc2ccccc2)NC(=O)[C@@H](NC(=O)[C@H](CO)NC(=O)[C@H](CO)NC(=O)[C@@H](N)CCCNC(=N)N)CSSC[C@@H](C(=O)N[C@@H](CC(N)=O)C(=O)N[C@@H](CO)C(=O)N[C@@H](Cc2ccccc2)C(=O)N[C@@H](CCCNC(=N)N)C(=O)N[C@@H](Cc2ccc(O)cc2)C(=O)O)NC(=O)CNC(=O)[C@H](CC(C)C)NC(=O)CNC(=O)[C@H](CO)NC(=O)[C@H](CCC(N)=O)NC(=O)[C@H](C)NC(=O)CNC1=O [rANP(126-150), R--S--S--C--F--G--G--R--I--D--R--I--G--A--Q--S--G--L--G--C--N--S--F--R--Y, reference compound]",Blood Pressure,-39 ± 5
